Laboratory results: PubChem BioAssay AID2074 (Sanford-Burnham Center for Chemical Genomics, 2009)

By UniProt entry, the sequences of proteins in these tests, tags left out. Where a name states a change or a piece, a line headed by the entry shows the natural chain unless it says otherwise.
UniProt P51452: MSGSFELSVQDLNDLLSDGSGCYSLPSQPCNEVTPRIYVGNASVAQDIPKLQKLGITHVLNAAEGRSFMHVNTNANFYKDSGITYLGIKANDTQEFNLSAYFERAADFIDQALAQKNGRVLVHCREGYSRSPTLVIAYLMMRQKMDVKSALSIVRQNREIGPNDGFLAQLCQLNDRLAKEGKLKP

Target: Dual specificity protein phosphatase 3 (Homo sapiens) (UniProt P51452)
Assay: Biochemical DiFMUP fluorescent assay for VHR phosphatase inhibition, SAR follow up (AID 2074)
Details: recombinant VHR phosphatase, DiFMUP fluorescence

Compound: O=C1/C(=C/c2cn(-c3ccccc3)nc2-c2ccc(S(=O)(=O)N3CCCCC3)cc2)SC(=S)N1CCS(=O)(=O)O
- IC50: 270 nM
